Test results from patent US11566007B2, “Ras inhibitors” (Revolution Medicines, Inc., priority 2019, dated 2023).

Sequences of proteins named here, by UniProt entry; tags and fusion partners are left off. A change or cut given only in a name is not applied to a line headed by its entry. Residues count along the entry.
UniProt P01116, 1-169 isoform 2 G12S limits assumed: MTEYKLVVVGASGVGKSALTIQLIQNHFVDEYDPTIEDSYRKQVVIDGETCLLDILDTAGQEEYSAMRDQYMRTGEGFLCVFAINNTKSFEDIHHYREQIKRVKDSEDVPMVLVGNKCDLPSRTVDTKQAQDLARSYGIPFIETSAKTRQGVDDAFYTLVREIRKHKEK
UniProt P01116, 1-169 isoform 2 G12D limits assumed: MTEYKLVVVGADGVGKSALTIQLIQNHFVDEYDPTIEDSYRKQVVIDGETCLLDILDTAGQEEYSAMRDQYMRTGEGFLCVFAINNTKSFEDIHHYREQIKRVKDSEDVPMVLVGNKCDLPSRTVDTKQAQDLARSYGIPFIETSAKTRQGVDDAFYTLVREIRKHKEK
UniProt P01116, 1-169 isoform 2 Q61H limits assumed: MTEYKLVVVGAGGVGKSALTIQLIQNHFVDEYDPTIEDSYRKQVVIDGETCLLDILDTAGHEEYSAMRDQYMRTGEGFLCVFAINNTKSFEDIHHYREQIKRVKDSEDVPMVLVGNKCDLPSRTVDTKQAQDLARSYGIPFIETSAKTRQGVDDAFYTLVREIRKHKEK
UniProt P62937, whole entry, stated change not applied: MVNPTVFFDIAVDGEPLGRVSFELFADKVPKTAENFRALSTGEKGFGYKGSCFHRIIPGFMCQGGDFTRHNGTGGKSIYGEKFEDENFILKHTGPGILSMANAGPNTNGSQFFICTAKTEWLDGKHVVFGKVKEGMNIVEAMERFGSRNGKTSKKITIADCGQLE

Assays:
[1] = molecular target: KRAS Q61H (Homo sapiens (Human), UniProt P01116+P62937, Q61H); test: Ras-Raf (BRAF RBD) disruption / FRET / MOA assay, KRAS Q61H; type: biochemical; conditions: read-out: KRAS Q61H FRET data IC50, class symbols
Description: The purpose of this biochemical assay is to measure the ability of test compounds to facilitate ternary complex formation between a nucleotide-loaded Ras isoform and cyclophilin A; the resulting ternary complex disrupts binding to a BRAF^RBD construct, inhibiting Ras signaling through a RAF effector.
(§1) […]. Compound is present in plate wells as a 10-point 3-fold dilution series starting at a final concentration of 30 μM. After incubation at 25° C. for 3 hours, a mixture of Anti-His Eu-W1024 and anti-GST allophycocyanin is then added to assay sample wells at final concentrations of 10 nM and 50 nM, respectively, and the reaction incubated for an additional 1.5 hours. TR-FRET signal is read on a microplate reader (Ex 320 nm, Em 665/615 nm). Compounds that facilitate disruption of a Ras:RAF complex are identified as those eliciting a decrease in the TR-FRET ratio relative to DMSO control wells.
Note—The following protocol describes a procedure for monitoring disruption of K-Ras G12C (GMP-PNP) binding to BRAF^RBD by a compound of the invention. This protocol may also be executed substituting other Ras proteins or nucleotides.
The purpose of this biochemical assay was to measure the ability of test compounds to facilitate ternary complex formation between a nucleotide-loaded K-Ras isoform and Cyclophilin A; the resulting ternary complex disrupts binding to a BRAF^RBD construct, inhibiting K-Ras signaling through a RAF effector. Data is reported as IC50 values.
as §1, with “Compound was” for “Compound is”, “allophycocyanin was” for “allophycocyanin is”, “signal was” for “signal is”, “a K-Ras:RAF” for “a Ras:RAF”, “complex were” for “complex are”

[2] = tested on: NCI-H358 cells (K-Ras G12C); test: Potency assay: pERK in NCI-H358 cells; conditions: read-out: pERK EC50; H358 KRAS G12C
[3] = molecular target: KRAS G12S (Homo sapiens (Human), UniProt P01116+P62937, G12S); test: Ras-Raf (BRAF RBD) disruption / FRET / MOA assay, KRAS G12S; type: biochemical; conditions: read-out: KRAS G12S FRET data IC50, class symbols
[4] = molecular target: KRAS G12D (Homo sapiens (Human), UniProt P01116+P62937, G12D); test: Ras-Raf (BRAF RBD) disruption / FRET / MOA assay, KRAS G12D; type: biochemical; conditions: read-out: KRAS G12D FRET data IC50, class symbols
[5] = tested on: NCI-H358 (K-Ras G12C); test: CellTiter-Glo cell viability assay, NCI-H358; conditions: read-out: Additional H358 Cell Viability assay data (K-Ras G12C, IC50); NCI-H358, 5-day treatment; class symbols

Compound	IC50 [1]	EC50 [2]	IC50 [3]	IC50 [4]	IC50 [5]
C=CC(=O)N1CC[C@H](C(=O)N(C)[C@H](C(=O)N[C@H]2Cc3cc(O)cc(c3)-c3ccc4c(c3)c(c(-c3ccccc3)n4CC)CC(C)(C)COC(=O)[C@@H]3CCCN(N3)C2=O)C(C)C)C1 [Example A23]	1000 to 10000 nM				
C=CC(=O)N1CC[C@H](C(=O)N(C)[C@H](C(=O)N[C@H]2Cc3cccc(c3)-c3ccc4c(c3)c(c(-c3cccnc3[C@H](C)OC)n4CC)CC(C)(C)COC(=O)[C@@H]3CCCN(N3)C2=O)C(C)C)C1		< 5000 nM	> 10000 nM	> 10000 nM	
C=CC(=O)N1CC(N(C)[C@H](C(=O)N[C@H]2Cc3cc(O)cc(c3)-c3ccc4c(c3)c(c(-c3cccnc3COC)n4CC)CC(C)(C)COC(=O)[C@@H]3CCCN(N3)C2=O)C(C)C)C1		< 5000 nM	> 10000 nM	> 10000 nM	> 1000 nM
C=CC(=O)N(C)CCN(C)C(=O)N(C)[C@H](C(=O)N[C@H]1Cc2nc(cs2)-c2ccc3c(c2)c(c(-c2cccnc2[C@H](C)OC)n3CC)CC(C)(C)COC(=O)[C@@H]2CCCN(N2)C1=O)C(C)C		< 5000 nM	100 to 1000 nM	1000 to 10000 nM	10 to 100 nM
CCn1c(-c2cccnc2[C@H](C)OC)c2c3cc(ccc31)-c1csc(n1)C[C@H](NC(=O)[C@H](C(C)C)N(C)C(=O)N(C)C1CN(C(=O)/C=C/C(C)(C)O)C1)C(=O)N1CCC[C@H](N1)C(=O)OCC(C)(C)C2	10 to 100 nM	< 5000 nM	100 to 1000 nM	1000 to 10000 nM	
C=CC(=O)C1CC[C@H](C(=O)N(C)[C@H](C(=O)N[C@H]2Cc3cc(O)cc(c3)-c3ccc4c(c3)c(c(-c3cccnc3)n4C3CC3)CC(C)(C)COC(=O)[C@@H]3CCCN(N3)C2=O)C(C)C)C1 (stereo partly shown)	1000 to 10000 nM	< 5000 nM			100 to 1000 nM
C=CC(=O)N1CC[C@H](C(=O)N(C)[C@H](C(=O)N[C@H]2Cc3cc(O)cc(c3)-c3ccc4c(c3)c(c(-c3ccc(CN(C)C)cc3)n4CC)CC(C)(C)COC(=O)[C@@H]3CCCN(N3)C2=O)C(C)C)C1 (single isomer, unassigned)			1000 to 10000 nM		
CCn1c(-c2cccnc2[C@H](C)OC)c2c3cc(ccc31)-c1cccc(c1)C[C@H](NC(=O)[C@H](C(C)C)N(C)C(=O)[C@H]1CCN(C(=O)C#CC3CCO3)C1)C(=O)N1CCC[C@H](N1)C(=O)OCC(C)(C)C2 (mixture of isomers) [Example A509]			> 10000 nM	> 10000 nM	100 to 1000 nM
CCn1c(-c2ccccc2CN(C)C)c2c3cc(ccc31)-c1cc(O)cc(c1)C[C@H](NC(=O)[C@H](C(C)C)N(C)C(=O)[C@H]1CCN(C(=O)/C=C/CN(C)C)C1)C(=O)N1CCC[C@H](N1)C(=O)OCC(C)(C)C2 (single isomer, unassigned)			100 to 1000 nM	1000 to 10000 nM	
CCn1c(-c2cccnc2[C@H](C)OC)c2c3cc(ccc31)-c1cccc(c1)C[C@H](NC(=O)[C@H](C(C)C)N1CC[C@]3(CCN(C(=O)C#CC(C)(C)N4CCC4)C3)C1=O)C(=O)N1CCC[C@H](N1)C(=O)OCC(C)(C)C2	100 to 1000 nM	< 5000 nM			
C=CC(=O)N1CC[C@H](C(=O)N(C)[C@H](C(=O)N[C@H]2Cc3cc(OC(=O)CCN4CCN(C)CC4)cc(c3)-c3ccc4c(c3)c(c(-c3ccccc3CCOC)n4CC)CC(C)(C)COC(=O)[C@@H]3CCCN(N3)C2=O)C(C)C)C1 (single isomer, unassigned)			1000 to 10000 nM	1000 to 10000 nM	
C=CS(=O)(=O)N1CC[C@H](C(=O)N(C)[C@H](C(=O)N[C@H]2Cc3cc(O)cc(c3)-c3ccc4c(c3)c(c(-c3cccnc3COC)n4CC)CC(C)(C)COC(=O)[C@@H]3CCCN(N3)C2=O)C(C)C)C1 (single isomer, unassigned)			1000 to 10000 nM		
CCn1c(-c2cccnc2COC)c2c3cc(ccc31)-c1cc(O)cc(c1)C[C@H](NC(=O)[C@H](C(C)C)N(C)C(=O)[C@H]1CCN(C(=O)/C=C/CN3CCN(C)CC3)C1)C(=O)N1CCC[C@H](N1)C(=O)OCC(C)(C)C2 (single isomer, unassigned)			100 to 1000 nM	1000 to 10000 nM	
CCn1c(-c2cccnc2[C@H](C)OC)c2c3cc(ccc31)-c1csc(n1)C[C@H](NC(=O)[C@H](C(C)C)N(C)C(=O)N1CC(N(C)C(=O)C#CC(C)(C)N3CCC3)C1)C(=O)N1CCC[C@H](N1)C(=O)OCC(C)(C)C2	10 to 100 nM	< 5000 nM	100 to 1000 nM	1000 to 10000 nM	
C=CC(=O)N1CC[C@H](C(=O)N(C)[C@H](C(=O)N[C@H]2Cc3cc(O)cc(c3)-c3ccc4c(c3)c(c(-c3ccc5cc(CN(C)C)n(C)c5c3)n4CC)CC(C)(C)COC(=O)[C@@H]3CCCN(N3)C2=O)C(C)C)C1 (single isomer, unassigned)			1000 to 10000 nM		
C=CC(=O)N1CCC(C(=O)N(C)[C@H](C(=O)N[C@H]2Cc3cc(O)cc(c3)-c3ccc4c(c3)c(c(-c3ccccc3CN(C)C)n4CC)CC(C)(C)COC(=O)[C@@H]3CCCN(N3)C2=O)C(C)C)CC1 (single isomer, unassigned)			1000 to 10000 nM		
C=CC(=O)N1CCO[C@H]2CN(C(=O)N(C)[C@H](C(=O)N[C@H]3CN4CCC=C(C4)c4ccc5c(c4)c(c(-c4cccnc4[C@H](C)OC)n5CC)CC(C)(C)COC(=O)[C@@H]4CCCN(N4)C3=O)C(C)C)C[C@H]21	100 to 1000 nM	< 5000 nM	1000 to 10000 nM	1000 to 10000 nM	< 10 nM
C=CC(=O)N1CCC2(CCN(C(C(=O)NC3Cc4cc(O)cc(c4)-c4ccc5c(c4)c(c(-c4ccccc4CCOC)n5CC)CC(C)(C)COC(=O)C4CCCN(N4)C3=O)C(C)C)C2=O)C1 (stereo not shown)		< 5000 nM			
C=CC(=O)N1CC[C@@]2(CCCN([C@H](C(=O)N[C@H]3Cc4cc(O)cc(c4)-c4ccc5c(c4)c(c(-c4ccccc4CCOC)n5CC)CC(C)(C)COC(=O)[C@@H]4CCCN(N4)C3=O)C(C)C)C2=O)C1 (single isomer, unassigned)			1000 to 10000 nM		
CCn1c(-c2ccccc2CCOC)c2c3cc(ccc31)-c1cc(O)cc(c1)C[C@H](NC(=O)[C@H](C(C)C)N(C)C(=O)C1CCN(C(=O)/C=C/CN(C)C)CC1)C(=O)N1CCC[C@H](N1)C(=O)OCC(C)(C)C2 (single isomer, unassigned)			1000 to 10000 nM		
